We go through one compound from paper PMC3174055 (Biochemical Journal, 2011).

Chains of the proteins cited; added tags and fusions are not shown. Lines headed by an entry give the natural chain unless they say otherwise; changes in a name come on top.
UniProt P42338: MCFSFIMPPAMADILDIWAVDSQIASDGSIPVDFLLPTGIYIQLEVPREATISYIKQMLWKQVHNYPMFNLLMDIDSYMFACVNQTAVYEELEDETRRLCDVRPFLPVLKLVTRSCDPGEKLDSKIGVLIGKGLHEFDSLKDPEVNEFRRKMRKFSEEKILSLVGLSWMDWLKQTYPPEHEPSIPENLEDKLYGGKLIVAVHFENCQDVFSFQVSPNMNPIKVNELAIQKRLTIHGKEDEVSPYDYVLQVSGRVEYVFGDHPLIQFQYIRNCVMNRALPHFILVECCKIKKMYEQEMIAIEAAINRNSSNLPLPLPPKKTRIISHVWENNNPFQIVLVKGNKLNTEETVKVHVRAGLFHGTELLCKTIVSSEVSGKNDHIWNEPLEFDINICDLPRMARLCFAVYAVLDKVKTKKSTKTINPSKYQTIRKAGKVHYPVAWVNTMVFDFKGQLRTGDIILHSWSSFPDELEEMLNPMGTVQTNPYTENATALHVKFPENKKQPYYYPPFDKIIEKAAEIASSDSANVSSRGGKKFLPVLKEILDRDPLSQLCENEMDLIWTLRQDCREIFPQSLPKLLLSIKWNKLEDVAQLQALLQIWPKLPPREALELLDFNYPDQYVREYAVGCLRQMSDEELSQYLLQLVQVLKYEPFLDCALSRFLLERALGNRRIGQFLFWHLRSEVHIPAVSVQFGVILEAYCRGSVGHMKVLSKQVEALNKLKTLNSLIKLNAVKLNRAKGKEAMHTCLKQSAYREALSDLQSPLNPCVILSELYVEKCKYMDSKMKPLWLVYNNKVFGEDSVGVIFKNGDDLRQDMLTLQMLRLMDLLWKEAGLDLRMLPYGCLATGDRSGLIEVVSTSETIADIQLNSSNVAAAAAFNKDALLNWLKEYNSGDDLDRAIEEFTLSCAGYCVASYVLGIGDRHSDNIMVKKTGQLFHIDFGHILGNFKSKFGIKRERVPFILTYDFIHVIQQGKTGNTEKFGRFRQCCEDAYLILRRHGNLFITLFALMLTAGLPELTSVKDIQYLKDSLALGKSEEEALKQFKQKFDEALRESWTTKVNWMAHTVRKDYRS

SMILES strings stand for the structures.

The assay concerns the target p110β (Homo sapiens, UniProt P42338). Kind of assay: PI3K. It counts as biochemical. Particulars: read-out: IC50 against p110β; HTRF assay.

Broadly, the IC50 is the point on the concentration scale where inhibition reaches its midpoint. For the compound `Cc1cc(C(C)Nc2ccccc2)c2nc(N3CCOCC3)cc(=O)n2c1` (stereo not shown) [TGX-221], the IC50 came to 12 nM.
